# Source: the supplement of paper PMC12339681
# The entries are a selection whose mix differs from that of the whole data set.
# System: PBMC-derived induced microglia-like cells (piMGLC)
# Assay: synaptosome phagocytic index relative to DMSO control (fraction of DMSO); higher = more phagocytosis
# Conditions: concentration: 10 uM (2 uM for compounds listed in Table S2); pretreatment time: 24 h; assay time: 3 h
# Experimental: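 PBMC-derived induced microglia-like cells (piMGLCs) in 96-well plates were pretreated for 24 h with CNS-penetrant library compounds (MedChemExpress HY-L028), mostly at 10 uM; Table S2 lists 9 compounds at 2 uM. pHrodo-Red-labelled human iPSC-neuron synaptosomes (3 ug/well) were then added for 3 h, and cells were fixed and imaged by confocal microscopy. Phagocytic index (synaptosome area / cell count, CellProfiler) is a mean over 3 replicate wells on different plates, normalized to the DMSO control. Compounds leaving <10% of DMSO cell count were marked toxic and given no value.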
row,Structure (SMILES),synaptosome phagocytic index
1,CNC[C@@H]1OCCc2ccsc21,0.103
